# Experimental data as given in patent publication US6387647B1 (priority 1993, dated 2002).
# Test system: STX429-2A (erg 6)
# Conditions: strain STX429-2A (erg 6)
# Protocol: Test media are prepared by combining separately 0.5 parts STX429-2A inoculum to 100 parts of warm YEPD agar media and 2 parts of DCX45(pML82)-1B to 100 parts of warm YEPD agar media. Plates for each culture are poured. Test samples are prepared on disks in duplicate, and each is placed on a STX429-2A plate and a DCX45(pML82)-1B plate, testing 20 μg of test sample per disk. A ¼″ disk containing 10 μg of dinaconazole is used as a positive control on each plate.
# The plates are incubated at 30° C. for two days and then examined to compare activity on the two strains. Actives produce a larger zone on the DCX45(pML82)-1B plate than on the STX429-2A plate.
smiles,measurement,value
CC(=O)N1CCN(c2ccc(OCC3COC(Cn4ccnc4)(c4ccc(Cl)cc4Cl)O3)cc2)CC1 (stereo not shown) [ketoconazole],Limit of Detection,100 ng
